Here are results for one substance from patent publication US8257965B2, “Arrays of biological membranes and methods and use thereof” (Corning Incorporated, priority 2001, dated 2012).

Chains of the proteins cited; added tags and fusions are not shown.
UniProt P35372, whole entry: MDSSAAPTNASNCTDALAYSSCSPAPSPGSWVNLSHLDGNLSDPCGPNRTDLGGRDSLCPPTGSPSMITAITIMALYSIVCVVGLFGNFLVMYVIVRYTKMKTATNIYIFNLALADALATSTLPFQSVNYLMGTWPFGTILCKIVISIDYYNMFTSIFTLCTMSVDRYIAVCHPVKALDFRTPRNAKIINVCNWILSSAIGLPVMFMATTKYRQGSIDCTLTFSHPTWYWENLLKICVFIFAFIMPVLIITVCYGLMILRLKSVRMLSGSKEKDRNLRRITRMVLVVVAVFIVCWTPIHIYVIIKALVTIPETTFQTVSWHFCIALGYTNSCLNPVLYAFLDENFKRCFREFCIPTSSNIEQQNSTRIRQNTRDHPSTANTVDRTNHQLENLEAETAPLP

In this experiment the target is opioid receptor subtype μ (Homo sapiens, UniProt P35372). Conditions: 25 nM BODIPY-FL-GTPγS, 3 μM GDP, 90 minutes, in the presence of dynorphin A.

Take dynorphin A: the “increase in basal level fluorescence” value is listed as approximately 2.5 fold.
